Biological target: 3',5'-cyclic-AMP phosphodiesterase 4D (Homo sapiens, UniProt Q08499)
Test: Inhibition of human recombinant PDE4D2 overexpressed in Escherichia coli after 15 mins using [3H]cAMP by scintillation proximity assay

The chains behind the UniProt entries cited, without tags or fusion partners. Where a name states a change or a piece, a line headed by the entry shows the natural chain unless it says otherwise.
UniProt Q08499: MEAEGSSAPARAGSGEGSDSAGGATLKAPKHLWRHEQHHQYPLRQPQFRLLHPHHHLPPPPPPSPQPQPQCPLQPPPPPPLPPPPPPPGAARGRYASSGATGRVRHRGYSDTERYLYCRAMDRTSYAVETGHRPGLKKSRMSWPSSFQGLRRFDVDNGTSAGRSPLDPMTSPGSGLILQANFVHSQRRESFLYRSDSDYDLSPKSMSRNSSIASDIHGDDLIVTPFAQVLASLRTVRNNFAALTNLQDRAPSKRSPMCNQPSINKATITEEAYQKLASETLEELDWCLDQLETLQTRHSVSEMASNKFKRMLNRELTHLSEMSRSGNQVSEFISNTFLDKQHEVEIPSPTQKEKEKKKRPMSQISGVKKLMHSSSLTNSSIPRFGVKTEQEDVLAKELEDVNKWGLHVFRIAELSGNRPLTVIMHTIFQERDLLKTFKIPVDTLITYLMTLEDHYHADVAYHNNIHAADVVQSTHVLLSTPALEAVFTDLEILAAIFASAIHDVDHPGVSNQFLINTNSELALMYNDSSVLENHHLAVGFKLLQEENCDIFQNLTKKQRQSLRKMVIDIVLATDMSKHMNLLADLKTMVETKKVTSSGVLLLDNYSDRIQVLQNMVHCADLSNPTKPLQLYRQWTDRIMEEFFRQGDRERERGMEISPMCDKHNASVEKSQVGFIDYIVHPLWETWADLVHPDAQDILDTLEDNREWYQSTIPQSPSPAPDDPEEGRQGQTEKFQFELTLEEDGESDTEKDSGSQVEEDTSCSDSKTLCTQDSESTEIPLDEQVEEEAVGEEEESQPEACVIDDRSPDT

CCOC(=O)N1CCc2c(sc(NC(=O)Cc3cccs3)c2C(=O)OC2CCCC2)C1
IC50: 290 nM

— ChEMBL document CHEMBL1921705, “Thiophene inhibitors of PDE4: crystal structures show a second binding mode at the catalytic domain of PDE4D2” (Bioorg Med Chem Lett, 2011)
